From patent US9358250B2, “Methods of using SCD1 antagonists” (Genentech, Inc., priority 2011, dated 2016)

By UniProt entry, the sequences of proteins in these tests, tags left out.
UniProt O00767, whole entry: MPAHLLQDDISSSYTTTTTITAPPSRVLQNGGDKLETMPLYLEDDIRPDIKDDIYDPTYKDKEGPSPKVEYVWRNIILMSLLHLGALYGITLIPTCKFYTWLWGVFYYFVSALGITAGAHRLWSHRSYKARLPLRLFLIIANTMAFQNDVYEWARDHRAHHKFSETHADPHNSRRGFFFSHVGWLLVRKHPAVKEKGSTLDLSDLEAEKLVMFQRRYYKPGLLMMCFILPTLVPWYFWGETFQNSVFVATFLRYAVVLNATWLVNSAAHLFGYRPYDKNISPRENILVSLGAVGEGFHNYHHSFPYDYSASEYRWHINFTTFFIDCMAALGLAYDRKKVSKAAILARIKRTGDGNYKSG
UniProt P07308, whole entry: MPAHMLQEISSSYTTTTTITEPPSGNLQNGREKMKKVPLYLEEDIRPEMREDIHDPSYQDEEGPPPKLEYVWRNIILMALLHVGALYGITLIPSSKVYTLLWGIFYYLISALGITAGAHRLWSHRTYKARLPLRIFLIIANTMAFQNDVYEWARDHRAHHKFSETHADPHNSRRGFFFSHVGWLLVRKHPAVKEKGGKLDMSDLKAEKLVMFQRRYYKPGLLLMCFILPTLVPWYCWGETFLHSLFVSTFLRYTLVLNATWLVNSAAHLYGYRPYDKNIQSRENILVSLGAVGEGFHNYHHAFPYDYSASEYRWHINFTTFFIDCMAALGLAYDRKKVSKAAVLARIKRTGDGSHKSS

What was measured:
[1] = test system: Caki 2; test: Cell viability, CellTiter-Glo; conditions: Caki 2, RCC cancer cell line, 72 hr
[2] = test system: LS174T; test: Cell viability, CellTiter-Glo; conditions: read-out: Cell Titer IC50, colon cancer cell line, 72 hr
[3] = test system: SW780; test: Cell viability, CellTiter-Glo
[4] = test system: Capan-2; test: Cell viability, CellTiter-Glo; conditions: Capan-2, pancreatic cancer cell line, 72 hr
[5] = test system: LNCap/Ner; test: Cell viability, CellTiter-Glo; conditions: prostate cell line, 72 hr
[6] = test system: UMUC-14; test: Cell viability, CellTiter-Glo
[7] = test system: BTFC905; test: Cell viability, CellTiter-Glo; conditions: read-out: Cell Titer IC50; BTFC905, bladder cancer cell line, 72 hr
[8] = test system: BxPC-3; test: Cell viability, CellTiter-Glo; conditions: read-out: Cell Titer IC50; BxPC-3, pancreatic cancer cell line, 72 hr
[9] = test system: HT29; test: Cell viability, CellTiter-Glo; conditions: read-out: Cell Titer IC50; HT29, colon cancer cell line, 72 hr
[10] = test system: CL-11; test: Cell viability, CellTiter-Glo; conditions: CL-11, colon cancer cell line, 72 hr
[11] = test system: Colo205; test: Cell viability, CellTiter-Glo; conditions: read-out: Cell Titer IC50; Colo205, colon cancer cell line, 72 hr
[12] = test system: DLD1; test: Cell viability, CellTiter-Glo; conditions: read-out: Cell Titer IC50; DLD1, colon cancer cell line, 72 hr
[13] = test system: HT55; test: Cell viability, CellTiter-Glo; conditions: read-out: Cell Titer IC50; HT55, colon cancer cell line, 72 hr
[14] = test system: SW620; test: Cell viability, CellTiter-Glo; conditions: read-out: Cell Titer IC50; SW620, colon cancer cell line, 72 hr
[15] = test system: HPAC; test: Cell viability, CellTiter-Glo; conditions: read-out: Cell Titer IC50, pancreatic cancer cell line, 72 hr
[16] = test system: Du145; test: Cell viability, CellTiter-Glo; conditions: read-out: Cell Titer IC50; Du145, prostate cell line, 72 hr
[17] = test system: HPAF-II; test: Cell viability, CellTiter-Glo; conditions: read-out: Cell Titer IC50, pancreatic cancer cell line, 72 hr
[18] = test system: LS 180; test: Cell viability, CellTiter-Glo; conditions: read-out: Cell Titer IC50; LS 180, colon cancer cell line, 72 hr
[19] = test system: Cal 54; test: Cell viability, CellTiter-Glo; conditions: Cal 54, RCC cancer cell line, 72 hr
[20] = test system: 4031.A; test: Cell viability, CellTiter-Glo; conditions: read-out: Cell Titer IC50, RCC cancer cell line, 72 hr
[21] = test system: 769P; test: Cell viability, CellTiter-Glo; conditions: read-out: Cell Titer IC50, RCC cancer cell line, 72 hr
[22] = test system: BFTC909; test: Cell viability, CellTiter-Glo; conditions: read-out: Cell Titer IC50; BFTC909, RCC cancer cell line, 72 hr
[23] = test system: PC-3; test: Cell viability, CellTiter-Glo; conditions: PC-3, prostate cell line, 72 hr
[24] = test system: Capan-1; test: Cell viability, CellTiter-Glo; conditions: read-out: Cell Titer IC50; Capan-1, pancreatic cancer cell line, 72 hr
[25] = test system: PANC-1; test: Cell viability, CellTiter-Glo; conditions: read-out: Cell Titer IC50; PANC-1, pancreatic cancer cell line, 72 hr
[26] = test system: LoVo; test: Cell viability, CellTiter-Glo; conditions: read-out: Cell Titer IC50, colon cancer cell line, 72 hr
[27] = test system: Hs 766T; test: Cell viability, CellTiter-Glo; conditions: pancreatic cancer cell line, 72 hr
[28] = test system: ACHN; test: Cell viability, CellTiter-Glo; conditions: read-out: Cell Titer IC50, RCC cancer cell line, 72 hr
[29] = test system: HCT116; test: Cell viability, CellTiter-Glo; conditions: read-out: Cell Titer IC50; HCT116, colon cancer cell line, 72 hr
[30] = test system: Caki 1; test: Cell viability, CellTiter-Glo; conditions: Caki 1, RCC cancer cell line, 72 hr
[31] = test system: 786.O; test: Cell viability, CellTiter-Glo; conditions: read-out: Cell Titer IC50, RCC cancer cell line, 72 hr
[32] = test system: RKO; test: Cell viability, CellTiter-Glo; conditions: read-out: Cell Titer IC50, colon cancer cell line, 72 hr
[33] = test system: G402; test: Cell viability, CellTiter-Glo; conditions: read-out: Cell Titer IC50; G402, RCC cancer cell line, 72 hr
[34] = test system: 786.O-VHL; test: Cell viability, CellTiter-Glo; conditions: read-out: Cell Titer IC50, RCC cancer cell line, 72 hr
[35] = test system: HCT-15; test: Cell viability, CellTiter-Glo; conditions: read-out: Cell Titer IC50; HCT-15, colon cancer cell line, 72 hr
[36] = test system: CFPAC-1; test: Cell viability, CellTiter-Glo; conditions: read-out: Cell Titer IC50; CFPAC-1, pancreatic cancer cell line, 72 hr
[37] = test system: AsPC-1; test: Cell viability, CellTiter-Glo; conditions: AsPC-1, pancreatic cancer cell line, 72 hr
[38] = test system: KP4 X1.1; test: Cell viability, CellTiter-Glo; conditions: read-out: Cell Titer IC50; KP4 X1.1, pancreatic cancer cell line, 72 hr
[39] = test system: HM7; test: Cell viability, CellTiter-Glo; conditions: read-out: Cell Titer IC50; HM7, colon cancer cell line, 72 hr
[40] = test system: MIA PaCa-2; test: Cell viability, CellTiter-Glo; conditions: read-out: Cell Titer IC50; MIA PaCa-2, pancreatic cancer cell line, 72 hr
[41] = test system: SW1990; test: Cell viability, CellTiter-Glo; conditions: SW1990, pancreatic cancer cell line, 72 hr
[42] = test system: colon cancer cell lines; test: Caspase-Glo 3/7 assay; conditions: colon cancer cells, 48 hr
[43] = test system: kidney cancer cell lines; test: Caspase-Glo 3/7 assay; conditions: kidney cancer cells, 48 hr
[44] = test system: pancreatic cancer cell lines; test: Caspase-Glo 3/7 assay; conditions: pancreatic cancer cells, 48 hr
[45] = test system: UMUC-14 tumors; test: Xenograft tumor growth
[46] = test system: DLD1 tumors; test: Xenograft tumor growth; conditions: DLD1, colon, orally twice a day
[47] = test system: AKT phosphorylation, caspases 3 and 7, PARP; test: Western blot of UMUC-14 cell lysates; type: cell-based, human; conditions: UMUC-14 cells, 20 hr
[48] = test system: multiple bladder cancer cell lines; test: Proliferation and apoptosis in culture; conditions: data not shown
[49] = biological target: SCD1 (Homo sapiens, UniProt O00767); test: SCD1 activity assay in cells
[50] = test system: human cancer cell lines, including colon, prostate, pancreatic, and bladder cancers; test: Cell viability, CellTiter-Glo, panel; conditions: panel of human cancer cell lines, 72 hr
[51] = biological target: rat SCD1 (Rattus norvegicus, UniProt P07308); conditions: cited from earlier work
[52] = test system: fatty acid desaturation; test: Fatty acid desaturation in tumor tissues, mouse liver and plasma (gas chromatography); conditions: 75 mg/kg twice a day, 2 hr after last treatment

SMILES: CNC(=O)c1cccc(NC(=O)N2CCC(Oc3ccccc3Cl)CC2)c1
- Cell Titer IC50 [1]: Resistant
- IC50 [2]: 31.3 nM
- effect of oleate on inhibition of viability ([3]; SW780, 1% FBS, 100 nM, 48 hr): oleate rescues SW780 cells
- effect of palmitate on inhibition of viability ([3]; SW780, 1% FBS, 100 nM, 48 hr): unable to reverse the effect
- IC50 ([3]; read-out: Cell Titer IC50, SW780, bladder cancer cell line, 72 hr): 12.5 nM
- Cell Titer IC50 [4]: Resistant
- Maximum Inhibition [4]: None
- Cell Titer IC50 [5]: Resistant
- Maximum Inhibition [5]: None
- effect of exogenously supplemented oleate on growth inhibition ([6]; 100 nM, UMUC-14 cells): reversed the growth inhibitory effect in a dose-dependent fashion
- effect of palmitate on growth inhibition ([6]; 100 nM, UMUC-14 cells): failed to rescue the cells
- reduction of viability ([6]; 100 nM, UMUC-14 cells): approximately 85%
- IC50 ([6]; read-out: Cell Titer IC50, UMUC-14, bladder cancer cell line, 72 hr): 14.4 nM
- IC50 [7]: 12.6 nM
- IC50 [8]: 30.9 nM
- IC50 [9]: 4.1 nM
- Cell Titer IC50 [10]: Resistant
- IC50 [11]: 20.4 nM
- IC50 [12]: 4.6 nM
- IC50 [13]: 18.3 nM
- IC50 [14]: 11.7 nM
- IC50 [15]: 40.5 nM
- IC50 [16]: 7.1 nM
- IC50 [17]: 48.3 nM
- IC50 [18]: 18.8 nM
- Cell Titer IC50 [19]: Resistant
- IC50 [20]: 12.7 nM
- IC50 [21]: 77.6 nM
- IC50 [22]: 767 nM
- Cell Titer IC50 [23]: Resistant
- Maximum Inhibition [23]: None
- IC50 [24]: 10.3 nM
- IC50 [25]: 21.8 nM
- IC50 [26]: 6.3 nM
- Cell Titer IC50 [27]: Resistant
- IC50 [28]: 15.8 nM
- IC50 [29]: 41.5 nM
- Cell Titer IC50 [30]: Resistant
- IC50 [31]: 32.4 nM
- IC50 [32]: 7.3 nM
- IC50 [33]: 690 nM
- IC50 [34]: 32 nM
- IC50 [35]: 6.9 nM
- IC50 [36]: 14.9 nM
- Cell Titer IC50 [37]: Resistant
- Maximum Inhibition [37]: None
- IC50 [38]: 6 nM
- IC50 [39]: 35.3 nM
- IC50 [40]: 12.8 nM
- Cell Titer IC50 [41]: Resistant
- Maximum Inhibition [41]: None
- caspases 3/7 activity [42]: activates caspases 3/7
- caspases 3/7 activity [43]: activates caspases 3/7
- caspases 3/7 activity [44]: activates caspases 3/7
- suppression of tumor growth compared with vehicle control ([45]; 75 mg/kg twice a day, day 20, athymic nude mice): about 60%
- Max % TGI, PO ([45]; UMUC-14, bladder, orally twice a day): 77%
- weight loss or other gross abnormalities ([45]; nude mice, course of the experiments): no significant weight loss or other gross abnormalities
- Max % TGI, PO [46]: No effect
- effector caspases 3 and 7 and their target PARP [47]: cleavage and activation of effector caspases 3 and 7
- phosphorylated AKT [47]: reduction of phosphorylated AKT
- apoptosis ([48]; in culture): induced apoptosis
- proliferation ([48]; normal growth condition): suppressed proliferation
- conversion of [^14C]stearic acid into oleic acid ([49]; data not shown): blocked the conversion of [^14C]stearic acid into oleic acid
- IC50 ([49]; read-out: IC50, synthesis of monounsaturated fatty acid from [^14C]acetate, UMUC-14 cells, estimated): 30 nM
- cell viability [50]: reduces cell viability
- IC50 [51]: 7.8 nM
- fatty acid desaturation in mouse liver and plasma [52]: significantly reduced
- ratio of monounsaturated fatty acid to saturated fatty acid in tumor lysates [52]: markedly decreased
